Measurements as given in patent US12583836B2 (Anaxis Pharma Pty Ltd, priority 2020, dated 2026).

By UniProt entry, the sequences of proteins in these tests, tags left out. Where a name states a change or a piece, a line headed by the entry shows the natural chain unless it says otherwise.
UniProt Q9Y572: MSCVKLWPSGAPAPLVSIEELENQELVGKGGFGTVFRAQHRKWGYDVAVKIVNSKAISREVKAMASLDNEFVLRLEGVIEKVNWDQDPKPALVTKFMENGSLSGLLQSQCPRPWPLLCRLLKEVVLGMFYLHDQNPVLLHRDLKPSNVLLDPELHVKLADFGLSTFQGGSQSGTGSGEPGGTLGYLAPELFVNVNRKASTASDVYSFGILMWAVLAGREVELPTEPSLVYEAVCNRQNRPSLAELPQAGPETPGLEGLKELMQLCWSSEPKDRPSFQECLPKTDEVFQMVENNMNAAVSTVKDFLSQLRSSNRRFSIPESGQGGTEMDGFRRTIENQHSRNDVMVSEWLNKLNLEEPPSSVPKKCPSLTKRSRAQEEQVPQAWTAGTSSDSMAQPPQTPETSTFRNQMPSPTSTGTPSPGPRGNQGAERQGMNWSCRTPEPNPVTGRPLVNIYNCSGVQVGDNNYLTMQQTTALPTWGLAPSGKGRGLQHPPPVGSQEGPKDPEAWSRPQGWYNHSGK

How the values were obtained:
MLKL (full length) = biological target: T1, MLKL (full length) (Homo sapiens, UniProt Q8NB16); test: KINOMEscan binding assay, MLKL; conditions: equilibrium dissociation constant, class symbols
T1 construct: purchased DiscoverX (KINOMEscan service); host or cells: E. coli BL21-derived (T7 phage) or HEK293
T1 sequence (Q8NB16 1-471): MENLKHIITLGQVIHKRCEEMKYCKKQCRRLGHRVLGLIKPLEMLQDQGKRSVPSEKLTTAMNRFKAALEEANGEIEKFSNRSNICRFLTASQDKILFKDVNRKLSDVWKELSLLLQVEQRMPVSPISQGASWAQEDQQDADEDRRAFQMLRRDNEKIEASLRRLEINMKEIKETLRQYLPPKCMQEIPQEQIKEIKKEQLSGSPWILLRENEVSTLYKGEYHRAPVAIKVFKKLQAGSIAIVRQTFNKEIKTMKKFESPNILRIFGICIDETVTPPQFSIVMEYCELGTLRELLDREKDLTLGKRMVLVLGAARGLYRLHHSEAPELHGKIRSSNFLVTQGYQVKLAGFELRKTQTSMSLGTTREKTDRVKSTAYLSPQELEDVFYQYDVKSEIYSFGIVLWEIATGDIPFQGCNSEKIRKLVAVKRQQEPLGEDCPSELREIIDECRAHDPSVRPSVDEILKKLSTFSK

[1] = test system: U937 human histiocytic leukemia cell line; test: Inhibition of TSQ induced necroptosis, 384 well plate format (CellTitre-Glo); conditions: U-937, U937 cells, TSQ cocktail (TNF, Smac mimetic, Q-VD-OPh), CelltiterGlo, read-out: Inhibition of TSQ-induced necroptosis (IC50 cell-based assay)
Method: […] ASSAY: Screening compounds for inhibition of TSQ induced necroptosis, 384 well plate format.
Cell Line ID: U937 human histiocytic leukemia cell line.
Cell Concentration (cells/well): Final cell density is 20000 cells per well.
Cell growth medium: HT-RPMI medium+7.4% Fetal Bovine Serum (FBS). Cells are cultured in Corning 150 cm^2 tissue culture flasks with vented caps at 37° C./5% CO2.
Incubation: Plates were incubated at 37° C./5% CO2 in a humidified incubator for 48 hours following addition of compounds and death stimuli (TSQ cocktail).
Compound concentration: 36 μM starting concentration, 1:3 dilution, 10 point
DMSO final concentration (% v/v): 0.3%.
Compounds in TSQ cocktail (T: TNF; S: Smac mimetic; Q: Q-VD-OPh) and their final concentrations:
hTNF-Fc (100 ng/ml)—produced by standard procedures as shown in Bossen et al., J Biol Chem, 2006, 281(20), 13964-13971. […]
The cellular assay was carried out according to the following steps: • 1. […] Read luminescence readout on a plate reader. […]
Percent viability was calculated for each compound according to equation (2):
[formula] • wherein • RawData is the readout of any cell containing a compound of the invention • TA is the total activity provided by the luminescence readout from DMSO only wells (columns 2 and 24)=100% viability • NSA is the non-specific activity provided by DMSO+TSQ wells (columns 1 and 23)=0% viability […]

RIP1 = biological target: T2, RIP1 (Homo sapiens, UniProt Q13546); test: KINOMEscan binding assay, RIP1; conditions: equilibrium dissociation constant, class symbols
T2 construct: purchased DiscoverX (KINOMEscan service); host or cells: E. coli BL21-derived (T7 phage) or HEK293
T2 sequence (Q13546 1-671): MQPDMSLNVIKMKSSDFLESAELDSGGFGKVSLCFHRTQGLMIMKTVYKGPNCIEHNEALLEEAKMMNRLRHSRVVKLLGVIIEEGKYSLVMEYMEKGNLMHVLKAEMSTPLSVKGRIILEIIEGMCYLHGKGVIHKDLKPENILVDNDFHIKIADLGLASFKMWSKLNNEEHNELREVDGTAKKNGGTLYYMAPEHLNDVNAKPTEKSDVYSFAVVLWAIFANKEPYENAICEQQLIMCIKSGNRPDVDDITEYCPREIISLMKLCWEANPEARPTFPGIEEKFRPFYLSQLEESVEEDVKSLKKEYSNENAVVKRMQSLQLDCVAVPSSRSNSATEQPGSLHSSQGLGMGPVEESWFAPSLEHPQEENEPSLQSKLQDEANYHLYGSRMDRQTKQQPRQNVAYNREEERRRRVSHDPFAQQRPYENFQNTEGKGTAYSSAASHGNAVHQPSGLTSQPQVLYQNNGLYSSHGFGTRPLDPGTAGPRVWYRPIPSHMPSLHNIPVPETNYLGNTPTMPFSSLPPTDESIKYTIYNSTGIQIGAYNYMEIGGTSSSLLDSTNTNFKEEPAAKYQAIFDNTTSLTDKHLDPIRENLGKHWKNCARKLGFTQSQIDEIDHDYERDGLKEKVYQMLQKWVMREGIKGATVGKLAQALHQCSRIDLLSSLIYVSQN

RIP3 = biological target: T3, RIP3 (Homo sapiens, UniProt Q9Y572); test: KINOMEscan binding assay, RIP3; conditions: equilibrium dissociation constant, class symbols
T3 construct: purchased DiscoverX (KINOMEscan service); host or cells: E. coli BL21-derived (T7 phage) or HEK293

Kd (MLKL (full length)) [µM]	Kd (RIP1) [µM]	Kd (RIP3) [µM]	Structure (SMILES)	IC50 [1] [µM]
< 0.01			COCC(Oc1cc(-c2n[nH]c(Nc3cc(C)on3)c2C(N)=O)ccc1NS(=O)(=O)C(F)F)c1ccc(F)cc1 (racemic) [Compound 298, 3-(4-((difluoromethyl)sulfonamido)-3-(1-(4-fluorophenyl)-2-methoxyethoxy)phenyl)-5-((5-methylisoxazol-3-yl)amino)-1H-pyrazole-4-carboxamide]	< 0.01
< 0.01	> 30	> 30	C[C@H](Oc1cc(-c2n[nH]c(Nc3cc(C4CCOC4)on3)c2C(N)=O)ccc1NS(=O)(=O)C(F)F)c1ccc(F)cc1 (stereo partly drawn) [Compound 305, 3-(4-((difluoromethyl)sulfonamido)-3-((S)-1-(4-fluorophenyl)ethoxy)phenyl)-5-((5-(tetrahydrofuran-3-yl)isoxazol-3-yl)amino)-1H-pyrazole-4-carboxamide]	
< 0.01	> 30	> 30	NC(=O)c1c(-c2ccc(NS(=O)(=O)C(F)F)c(OC3(c4ccc(F)cc4)CC3)c2)n[nH]c1Nc1cnccn1 [Compound 307, 3-(4-((difluoromethyl)sulfonamido)-3-(1-(4-fluorophenyl)cyclopropoxy)phenyl)-5-(pyrazin-2-ylamino)-1H-pyrazole-4-carboxamide]	
< 0.01	> 30	> 30	Cc1cc(Nc2[nH]nc(-c3ccc(NS(=O)(=O)CC(F)(F)F)c(O[C@@H](C)c4ccc(F)cc4)c3)c2C(N)=O)no1 [Compound 311, (S)-3-(3-(1-(4-fluorophenyl)ethoxy)-4-((2,2,2-trifluoroethyl)sulfonamido)phenyl)-5-((5-methylisoxazol-3-yl)amino)-1H-pyrazole-4-carboxamide]	
< 0.01	> 30	> 30	C[C@H](Oc1cc(-c2n[nH]c(Nc3cnc(C(C)(C)C)cn3)c2C(N)=O)ccc1NS(=O)(=O)C(F)F)c1ccc(F)cc1 [Compound 312, (S)-5-((5-(tert-butyl)pyrazin-2-yl)amino)-3-(4-((difluoromethyl)sulfonamido)-3-(1-(4-fluorophenyl)ethoxy)phenyl)-1H-pyrazole-4-carboxamide]	
< 0.01	> 30	> 30	NC(=O)c1c(-c2ccc(NS(=O)(=O)C(F)F)c(OCc3ncco3)c2)n[nH]c1Nc1cnccn1 [Compound 313, 3-(4-((difluoromethyl)sulfonamido)-3-(oxazol-2-ylmethoxy)phenyl)-5-(pyrazin-2-ylamino)-1H-pyrazole-4-carboxamide]	
< 0.01	> 30	> 30	CCS(=O)(=O)Nc1ccc(-c2n[nH]c(Nc3ccc(C(=O)O)cn3)c2C(N)=O)cc1O[C@@H](C)c1ccc(F)cc1 [Compound 315, (S)-6-((4-carbamoyl-3-(4-(ethylsulfonamido)-3-(1-(4-fluorophenyl)ethoxy)phenyl)-1H-pyrazol-5-yl)amino)nicotinic acid]	
< 0.01	> 30	> 30	C[C@H](Oc1cc(-c2n[nH]c(Nc3cnc(C4CC4)cn3)c2C(N)=O)ccc1NS(=O)(=O)C(F)F)c1ccc(F)cc1 [Compound 316, (S)-5-((5-cyclopropylpyrazin-2-yl)amino)-3-(4-((difluoromethyl)sulfonamido)-3-(1-(4-fluorophenyl)ethoxy)phenyl)-1H-pyrazole-4-carboxamide]	
< 0.01	> 30	> 30	CCS(=O)(=O)Nc1ccc(-c2n[nH]c(Nc3cc(C)on3)c2C(N)=O)cc1O[C@@H](C)c1ccc(F)cc1 [Compound 317, (S)-3-(4-(ethylsulfonamido)-3-(1-(4-fluorophenyl)ethoxy)phenyl)-5-((5-methylisoxazol-3-yl)amino)-1H-pyrazole-4-carboxamide]	
< 0.01	> 30	> 30	C[C@H](Oc1cc(-c2n[nH]c(Nc3cc4n(n3)CCCN(C)C4)c2C(N)=O)ccc1NS(=O)(=O)C(F)F)c1ccc(F)cc1 [Compound 318, (S)-3-(4-((difluoromethyl)sulfonamido)-3-(1-(4-fluorophenyl)ethoxy)phenyl)-5-((5-methyl-5,6,7,8-tetrahydro-4H-pyrazolo[1,5-a][1,4]diazepin-2-yl)amino)-1H-pyrazole-4-carboxamide]	
< 0.01	> 30	> 30	COCC(Oc1cc(-c2n[nH]c(Nc3cnccn3)c2C(N)=O)ccc1NS(=O)(=O)C(F)F)c1ccc(F)cc1 (centres unmarked) [Compound 319, 3-(4-((difluoromethyl)sulfonamido)-3-(1-(4-fluorophenyl)-2-methoxyethoxy)phenyl)-5-(pyrazin-2-ylamino)-1H-pyrazole-4-carboxamide]	
< 0.01	> 30	> 30	Cc1cc(Nc2c(C(N)=O)c(-c3ccc(NS(=O)(=O)C(F)F)c(O[C@@H](C)c4ccc(F)cc4)c3)nn2C)no1 [Compound 320, (S)-3-(4-((difluoromethyl)sulfonamido)-3-(1-(4-fluorophenyl)ethoxy)phenyl)-1-methyl-5-((5-methylisoxazol-3-yl)amino)-1H-pyrazole-4-carboxamide]	
